## Apparent affinities of Ab-91 variants for a coronavirus HR2 peptide

Values reported by Engelhart et al. 2022, doi:10.1038/s41597-022-01779-4 (FLAb copy).

Antigen: PDVDLGDISGINAS, a 14-residue peptide of the SARS-CoV-2 spike HR2 region.

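The parent was found by panning a naive human phage display library on the peptide. In library AAYL51, one, two or three CDR residues were substituted; doubles and triples were drawn at random. AlphaSeq pools MATa yeast showing the antibodies with MATalpha yeast showing the peptide. Binding brings cells together so that they mate, and sequencing counts the barcode pairs among the diploids. Scores were corrected for input abundance and mapped to Kd with protein pairs of known affinity run in the same pool. Mating was done three times.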

Ab-91 is the parent antibody, in scFv form: VL, then a (GGGGS)3 linker, then VH. The light chain is unchanged in all variants.
VL: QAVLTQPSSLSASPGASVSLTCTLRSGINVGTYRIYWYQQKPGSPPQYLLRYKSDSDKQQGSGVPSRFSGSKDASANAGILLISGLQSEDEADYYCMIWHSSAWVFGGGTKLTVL
VH: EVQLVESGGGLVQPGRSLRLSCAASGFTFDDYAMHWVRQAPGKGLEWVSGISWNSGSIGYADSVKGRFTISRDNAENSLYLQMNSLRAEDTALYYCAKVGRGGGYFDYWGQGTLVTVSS

Each variant is given by its three heavy chain CDRs, as the data file delimits them; those of the parent are GFTFDDYAMH, GISWNSGSIGYADSVK, VGRGGGYFDY. Affinities are written as log10 Kd with Kd in nM; a lower number is a better binder. Replicates are averaged; those with no signal do not enter the mean. A pair that was not seen in that replicate is written "nd"; this usually means weak binding, but a binder can also be missed. Nonspecific signal, from three strains lacking the peptide, appeared in 21% of pairings of library AAYL51, centred on 4.54 (5% of these signals below 3.26); values are not corrected for it. Also given: how often the same scFv was detected with the empty control strains, with their mean in brackets.

| CDR-H1 | CDR-H2 | CDR-H3 | log10 Kd, replicates | mean, log10 nM | empty controls |
|---|---|---|---|---|---|
| GFTFDDYAMH | GISWNSGSCGYADSDG | VGRGGGYFDY | nd 5.47 nd | 5.47 | 2/9 (5.17) |
| GFTFDDYAMC | GQSWNSGSIGYADTVK | VGRGGGYFDY | nd nd nd | nd | 4/9 (4.58) |
| GFTFDDYAMH | GISWNSGSIGYFDSRK | VGRGGGMFDY | nd 6.39 nd | 6.39 | 5/9 (5.20) |
| GFTFDDYAMH | GISWNSGSIGYAESVK | VGRGGGYCDY | 1.52 1.66 1.13 | 1.44 | 4/9 (4.08) |
| GFTFDDYAMH | KVSWNSGSIGYADSVK | QGRGGGYFDY | nd nd nd | nd | 0/9 |
| GFTFDDYAMH | GISWNSGSPGYADSKK | KGRGGGYFDY | nd 5.87 nd | 5.87 | 3/9 (4.41) |
| GFTFDDYAMH | GISWNSGSEGYADSVK | MGRGGGYFPY | 0.88 0.87 0.40 | 0.71 | 6/9 (5.31) |
| EFTFDDYAMH | GISWNSGSILYADSVK | VGRGGEYFDY | 3.72 nd nd | 3.72 | 3/9 (4.11) |
| GFTFDDYAKH | GIWWNSGSIGYADSVQ | VGRGGGYFDY | 5.35 nd nd | 5.35 | 2/9 (4.22) |
| GFTFDDYAMH | GYSWNSGSIGYKDSVK | VGRGGGYFDY | nd 3.74 nd | 3.74 | 1/9 (4.84) |
| GFTFDDYAMH | GISWWPGSIGYADSVK | VGRGGGYFDY | nd nd nd | nd | 2/9 (4.21) |
| GFTFDDYAMH | GISWNSGSIYYADSVK | VGRGGPQFDY | nd nd nd | nd | 0/9 |
| GFTFDDYAMH | GISWNSGSIGFADSVR | VGRGGGYPDY | 4.38 nd nd | 4.38 | 3/9 (3.98) |
| GFTFDDYAMH | GISWMSGSIFYSDSVK | VGRGGGYFDY | nd nd nd | nd | 4/9 (5.06) |
| GFTFFDYAMH | GISWDSGSIGYADSVK | VGRGGGKFDY | 0.82 0.80 0.35 | 0.66 | 0/9 |
| GFTFDDYYMH | GISWNSGSIGYADSVC | VGRGGGYFKY | 4.25 nd nd | 4.25 | 4/9 (4.53) |
| GFQFDDYAMH | GISANSGSIGYADSVK | AGRGGGYFDY | 5.13 nd 5.17 | 5.15 | 4/9 (4.40) |
| GFTFDDYASH | GISWNSGSIGYADSVK | VGRGIGYFDY | 4.74 nd 5.00 | 4.87 | 5/9 (4.36) |
| GFTFDDYAMH | GISWNHGSIGPADSPK | VGRGGGYFDY | 4.85 nd 4.54 | 4.70 | 0/9 |
| GFTFDDYAMH | GNSWNSGSIGCADSVK | VGRGGGYFDY | 4.47 nd nd | 4.47 | 4/9 (5.22) |
| GFMFDDYAMH | GISWNSGSIGYADSGK | VGRGGGYIDY | 4.93 nd nd | 4.93 | 0/9 |
| GFTFDDYAMG | GISWNSGSIGYASSVK | VGRGGGPFDY | 4.11 6.32 4.09 | 4.84 | 7/9 (4.45) |
| GFTFDDYAMH | LISWNSVSIGYRDSVK | VGRGGGYFDY | nd nd nd | nd | 1/9 (3.93) |
| GFTFDDYAMH | GISWTSGSIGYADSRK | VGRGGGYFDY | nd nd nd | nd | 0/9 |
| GFTFDDYAQH | GISWNSGSIGYADSVK | VGRGGGTLDY | 5.40 4.65 4.76 | 4.94 | 7/9 (4.87) |
| GFTWDDYAMH | GISWNSMSIGYALSVK | VGRGGGYFDY | 5.82 nd 4.73 | 5.28 | 2/9 (4.07) |
| GFTFDDYAMH | GINWNSGSIGYADSVK | VGIGGGYFSY | nd nd nd | nd | 2/9 (4.45) |
| PFTLDDYAMH | GISWNSGSIGYADSWK | VGRGGGYFDY | nd nd 4.13 | 4.13 | 3/9 (3.97) |
| GCTFDDYAMH | GISWNSGSIGYADRVK | VGRGGGKFDY | 3.76 3.77 nd | 3.77 | 3/9 (4.31) |
| GFTFDDYAMH | GISWMSSCIGYADSVK | VGRGGGYFDY | 3.95 5.99 nd | 4.97 | 2/9 (4.62) |
| GFTFDDYAMH | GISWNSGSIRYADSVK | VGSGGGYFDY | 4.64 nd nd | 4.64 | 2/9 (3.65) |
| IETFDDYAMH | GISWNSGAIGYADSVK | VGRGGGYFDY | nd 3.94 3.44 | 3.69 | 0/9 |
| GFTFDDYAMH | GKTWNSGSIGYADSVK | EGRGGGYFDY | nd nd nd | nd | 0/9 |
| GFTFDDYAMN | GISWQSGSIGYATSVK | VGRGGGYFDY | nd nd nd | nd | 2/9 (2.78) |
| GFTFDDYAMH | GISWNSGSIGYWDSVK | VGRGGGAIDY | nd nd nd | nd | 0/9 |
| GFTFDDYAMT | GIYWNSGSIGYADSVK | VGRGGGVFDY | 4.31 nd nd | 4.31 | 0/9 |
| GFTFDPQAMH | GISWNSGSIGYADSVK | VGRGGGYFDY | nd nd nd | nd | 1/9 (2.89) |
| GFTFDDYAMH | GNSWNSGSEGYADSVK | VGRGGGYFDY | nd nd nd | nd | 2/9 (5.11) |
| GFTFDDYAMH | GISWNSPSIGEADSVG | VGRGGGYFDY | nd nd 4.10 | 4.10 | 2/9 (3.60) |
| GFGFDDYAMH | GISWNSGSHGYADSVK | VGRGGYYFDY | nd nd nd | nd | 1/9 (3.40) |
| GFTFDDTAMH | ECSWNSGSIGYADSVK | VGRGGGYFDY | nd nd nd | nd | 1/9 (4.01) |
| GSTFDDYAMH | GYSWNSGRIGYADSVK | VGRGGGYFDY | nd 4.84 4.94 | 4.89 | 1/9 (4.10) |
| GFTFDDYAMH | GISWNSGSIGYAGDVS | VGRGGGYFDY | 2.56 2.93 2.32 | 2.60 | 2/9 (4.06) |
| GFTCDDYAMH | GIHWNSGSIGYADSVK | VGRGGWYFDY | nd nd nd | nd | 0/9 |
| GFTFDSIAMH | GISWNSGSIGYADSVC | VGRGGGYFDY | 5.65 3.98 5.19 | 4.94 | 5/9 (4.50) |
| GFTFDDYAMH | GISWNSGSRGYADSVK | VERKGGYFDY | nd nd nd | nd | 0/9 |
| GFTFDDYAMP | GISWNSGSIGYQDSVV | VGRGGGYFDY | nd nd nd | nd | 0/9 |
| GFAFDPYAMH | GISWNSGSIGYADSVK | KGRGGGYFDY | nd nd nd | nd | 0/9 |